{
  "sequences": {"note": "The chains behind the UniProt entries cited, without tags or fusion partners.", "UniProt P31645, whole entry": "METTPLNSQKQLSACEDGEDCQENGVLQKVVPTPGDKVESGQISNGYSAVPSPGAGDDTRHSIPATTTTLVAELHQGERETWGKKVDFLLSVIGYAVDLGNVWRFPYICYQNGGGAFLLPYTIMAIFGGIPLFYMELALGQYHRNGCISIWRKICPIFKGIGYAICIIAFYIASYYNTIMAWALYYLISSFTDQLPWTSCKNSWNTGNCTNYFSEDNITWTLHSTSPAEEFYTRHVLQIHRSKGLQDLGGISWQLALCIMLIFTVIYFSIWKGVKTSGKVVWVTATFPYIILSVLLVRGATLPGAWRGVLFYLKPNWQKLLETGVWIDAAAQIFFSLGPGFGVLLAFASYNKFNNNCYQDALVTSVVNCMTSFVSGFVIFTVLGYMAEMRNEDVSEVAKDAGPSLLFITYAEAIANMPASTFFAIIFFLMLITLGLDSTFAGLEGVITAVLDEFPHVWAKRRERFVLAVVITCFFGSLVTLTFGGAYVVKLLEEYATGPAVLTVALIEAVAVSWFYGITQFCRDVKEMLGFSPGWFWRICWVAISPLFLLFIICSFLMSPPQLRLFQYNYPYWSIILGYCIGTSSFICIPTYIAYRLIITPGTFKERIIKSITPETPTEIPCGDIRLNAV"},
  "source": "paper PMC11267547",
  "about": "“Advancing drug discovery through assay development: a survey of tool compounds within the human solute carrier superfamily” (Frontiers in Pharmacology, 2024)",
  "key": {"SLC22A3 (OCT3)": {"target": "T1, SLC22A3 (OCT3) (Homo sapiens, UniProt O75751)", "T1 construct": "expressed in transfected cells; host or cells: Jump In T-REx HEK293", "T1 sequence (O75751 1-556)": "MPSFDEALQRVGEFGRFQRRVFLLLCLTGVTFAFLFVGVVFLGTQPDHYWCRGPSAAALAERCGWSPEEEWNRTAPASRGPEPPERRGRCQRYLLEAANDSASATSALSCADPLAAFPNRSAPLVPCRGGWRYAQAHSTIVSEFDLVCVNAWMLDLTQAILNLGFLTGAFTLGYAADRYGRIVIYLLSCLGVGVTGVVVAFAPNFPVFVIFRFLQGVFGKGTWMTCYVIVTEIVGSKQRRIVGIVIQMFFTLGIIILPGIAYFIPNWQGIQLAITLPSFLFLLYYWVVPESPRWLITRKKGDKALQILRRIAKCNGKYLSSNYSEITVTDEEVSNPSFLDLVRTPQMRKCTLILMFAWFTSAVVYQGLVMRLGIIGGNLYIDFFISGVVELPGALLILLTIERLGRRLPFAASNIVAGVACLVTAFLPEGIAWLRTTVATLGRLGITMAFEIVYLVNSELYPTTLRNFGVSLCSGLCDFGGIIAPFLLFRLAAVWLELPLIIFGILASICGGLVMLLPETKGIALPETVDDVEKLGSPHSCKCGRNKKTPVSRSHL", "assay": "Impedance-based MPP+ transport assay, HEK293–JumpIn–OCT3 cells", "format": "cell-based"}, "[1]": {"system": "13 different SLCs (SLC1A1, SLC1A2, SLC1A3, SLC6A2, SLC6A4, SLC6A8, SLC6A9, SLC7A3, SLC9A1, SLC13A3, SLC22A3, SLC23A1, SLC6A12)", "assay": "Test of selected compounds against a panel of 13 SLCs in RESOLUTE assays", "format": "cell-based, human", "details": "other tested SLCs of the 13-SLC panel; in words"}, "SLC6A4": {"target": "SLC6A4 (Homo sapiens, UniProt P31645)", "assay": "cell-based"}},
  "data": [
    {"smiles": "Nc1nc2ccc(OC(F)(F)F)cc2s1", "note": "[Riluzole]", "values": [
      {"measurement": "IC50", "setting": "SLC22A3 (OCT3)", "value": "> 10", "unit": "µM"}
    ]},
    {"smiles": "Cc1c(NC(=O)c2cc(C(N)=O)nc3cc(F)ccc23)c(C(F)(F)F)nn1Cc1ccc(C#N)cc1", "note": "[BAY-876]", "values": [
      {"measurement": "off-target activity / selectivity across the tested SLC panel", "setting": "[1]", "value": "confirm the selectivity"}
    ]},
    {"smiles": "C=C(C)[C@H]1CN[C@H](C(=O)O)[C@H]1CC(=O)O", "note": "[Kainic acid]", "values": [
      {"measurement": "IC50", "setting": "SLC6A4", "value": "> 10", "unit": "µM"}
    ]}
  ]
}
